The results in this text go back to PubChem BioAssay AID488960 (Johns Hopkins Ion Channel Center, 2010).

The chains behind the UniProt entries cited, without tags or fusion partners.
UniProt Q61143, whole entry: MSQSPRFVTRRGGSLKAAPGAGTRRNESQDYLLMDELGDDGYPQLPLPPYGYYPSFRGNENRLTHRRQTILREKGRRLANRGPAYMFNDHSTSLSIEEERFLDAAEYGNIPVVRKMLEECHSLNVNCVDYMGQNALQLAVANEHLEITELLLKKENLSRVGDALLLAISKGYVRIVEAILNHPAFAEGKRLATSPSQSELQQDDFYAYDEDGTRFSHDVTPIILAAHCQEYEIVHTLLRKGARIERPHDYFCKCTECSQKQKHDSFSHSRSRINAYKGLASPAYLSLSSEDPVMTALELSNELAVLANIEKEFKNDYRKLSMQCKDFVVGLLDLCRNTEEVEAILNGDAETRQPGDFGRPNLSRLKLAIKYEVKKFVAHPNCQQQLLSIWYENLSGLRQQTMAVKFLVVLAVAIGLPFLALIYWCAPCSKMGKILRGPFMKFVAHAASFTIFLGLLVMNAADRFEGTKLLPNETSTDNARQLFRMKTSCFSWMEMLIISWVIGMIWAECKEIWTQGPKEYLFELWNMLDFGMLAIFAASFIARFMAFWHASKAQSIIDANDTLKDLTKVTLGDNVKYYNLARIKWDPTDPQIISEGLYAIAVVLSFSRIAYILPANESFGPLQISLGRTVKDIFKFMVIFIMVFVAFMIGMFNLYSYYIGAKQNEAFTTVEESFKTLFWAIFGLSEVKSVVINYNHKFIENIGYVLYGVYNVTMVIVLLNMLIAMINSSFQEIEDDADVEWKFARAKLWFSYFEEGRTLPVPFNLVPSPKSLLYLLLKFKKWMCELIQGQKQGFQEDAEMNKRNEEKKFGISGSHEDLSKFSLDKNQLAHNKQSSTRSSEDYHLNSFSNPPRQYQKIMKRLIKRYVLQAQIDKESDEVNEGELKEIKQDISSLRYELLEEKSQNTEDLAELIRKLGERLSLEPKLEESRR

This is a selection; strong and weak results do not stand in their true shares. The source made the active and inactive calls.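 Rule for the calls: active = fluorescence ratio falls more than 5 SD below the full-stimulation control mean, in both duplicate runs; inactive = the rest.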

One may read the inhibition as how much of the control response was suppressed.

This assay deals with Short transient receptor potential channel 6 (Mus musculus) (UniProt Q61143). As to the kind of experiment: blockers of TRPC6 cation channel activity – HEK293 cells, membrane potential dye, duplicate, confirmation (AID 488960).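 Note: integrated fluorescence ratio of peak minus minimum over baseline after agonist.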 The note with it: ACh-evoked depolarization, at 10 µM, stronger effect = higher value.
With `CCN(CC)CCCOC(=O)C(O)(c1ccccc1)c1ccccc1`, the inhibition was active: 98.5%.
On to `CCN(CC)CCCOC(=O)C(O)(c1ccccc1)C1CCCCC1` (configuration not stated), for which the inhibition was active: 91.9%.
In the case of `CN(C)CCOC(=O)C(O)(c1ccccc1)C1CCCCC1` (configuration not stated), the inhibition is active: 82.8%.
Consider `CCOC(=O)c1ccc(NP(C)(=O)Oc2ccc(Cl)cc2)cc1` (configuration not stated), for which the inhibition was active: 64.3%.
As for `O=C(OCCCN1CCCC1)C(O)(c1ccccc1)C1CCCCC1` (configuration not stated), the inhibition was active: 83.3%.
As for `CCN(CC)CC(O)COC(=O)C(O)(c1ccccc1)C1CCCCC1` (configuration not stated), the inhibition is active: 95%.
As to `CN(C)CCOC(=O)C(O)(c1ccccc1)C1CCCC1` (configuration not stated), the inhibition is active: 90.8%.
